These are literature values, as cited in patent publication US20090062309A1, “Therapeutic compositions for the treatment of cardiovascular diseases and methods for use therefor” (priority 2007, published 2009).

The conditions of this data set: upon ingestion, humans; cited from earlier work.

For `Cl.NC(N)=NC(=O)c1nc(Cl)c(N)nc1N.O.O` [Amiloride, 3,5-diamino-6-chloro-N-(diaminomethylene) pyrazinecarboxamide monohydrochloride, dihydrate], the metabolism result was “not metabolized by the liver”.
